Measured values as given in article PMC2946321 (2010).

Sequences of proteins named here, by UniProt entry; tags and fusion partners are left off.
UniProt P21917, whole entry: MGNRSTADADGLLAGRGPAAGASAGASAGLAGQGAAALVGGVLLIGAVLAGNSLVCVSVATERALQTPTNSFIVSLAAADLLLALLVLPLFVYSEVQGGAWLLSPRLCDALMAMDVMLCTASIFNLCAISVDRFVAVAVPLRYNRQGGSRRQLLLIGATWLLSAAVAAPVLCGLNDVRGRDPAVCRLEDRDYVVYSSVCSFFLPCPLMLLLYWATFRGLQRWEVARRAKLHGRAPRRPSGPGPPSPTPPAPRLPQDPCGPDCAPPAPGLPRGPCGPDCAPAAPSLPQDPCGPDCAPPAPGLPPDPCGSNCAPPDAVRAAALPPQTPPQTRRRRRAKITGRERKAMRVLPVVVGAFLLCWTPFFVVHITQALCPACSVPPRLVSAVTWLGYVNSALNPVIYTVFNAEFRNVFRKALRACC

Biological target: human D4 (Homo sapiens, UniProt P21917)
Test: Competitive radioligand binding, 125I-IABN, D4 dopamine receptors
Conditions: read-out: Ki D4

With “1-(Benzo[b]thiophen-2-ylmethyl)-4-(4-bromophenyl)piperidin-4-ol oxalate [Compound 20]” the Ki was 377 ± 47 nM.
